# Experimental data published in ChEMBL document CHEMBL1144935, “Synthesis, biological evaluation, and receptor docking simulations of 2-[(acylamino)ethyl]-1,4-benzodiazepines as kappa-opioid receptor agonists endowed with antinociceptive and antiamnesic activity” (J Med Chem, 2003).
# The chains behind the UniProt entries cited, without tags or fusion partners. Where a name states a change or a piece, a line headed by the entry shows the natural chain unless it says otherwise.
# UniProt P41145: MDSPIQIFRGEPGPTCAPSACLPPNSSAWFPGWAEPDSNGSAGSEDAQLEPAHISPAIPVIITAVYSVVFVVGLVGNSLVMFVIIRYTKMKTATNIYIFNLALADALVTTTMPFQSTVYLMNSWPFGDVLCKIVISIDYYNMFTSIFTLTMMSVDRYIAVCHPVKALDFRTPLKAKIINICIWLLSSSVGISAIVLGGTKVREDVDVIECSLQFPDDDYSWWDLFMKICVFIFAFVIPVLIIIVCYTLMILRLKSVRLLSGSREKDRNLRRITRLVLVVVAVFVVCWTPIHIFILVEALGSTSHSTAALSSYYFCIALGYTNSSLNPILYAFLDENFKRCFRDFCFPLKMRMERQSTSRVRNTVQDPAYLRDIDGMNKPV
# UniProt P35372, whole entry: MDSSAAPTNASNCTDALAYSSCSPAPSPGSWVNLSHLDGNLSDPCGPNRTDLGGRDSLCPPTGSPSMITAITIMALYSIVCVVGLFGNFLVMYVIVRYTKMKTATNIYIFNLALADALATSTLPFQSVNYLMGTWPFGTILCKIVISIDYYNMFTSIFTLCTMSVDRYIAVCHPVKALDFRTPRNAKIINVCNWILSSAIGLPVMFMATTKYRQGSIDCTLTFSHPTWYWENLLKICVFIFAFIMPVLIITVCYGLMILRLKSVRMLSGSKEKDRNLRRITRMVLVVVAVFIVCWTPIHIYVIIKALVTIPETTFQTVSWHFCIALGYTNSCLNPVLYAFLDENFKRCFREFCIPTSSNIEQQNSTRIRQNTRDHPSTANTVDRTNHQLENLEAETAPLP
# Assays:
# [1] = target: Kappa-type opioid receptor (Homo sapiens, UniProt P41145); assay: Binding affinity against opioid receptor kappa 1 from human cloned receptor
# [2] = target: Mu-type opioid receptor (Homo sapiens, UniProt P35372); assay: Binding affinity determined against Opioid receptor mu 1 from human cloned receptor
structure (smiles),measurement,setting,value
Oc1ccc2c3c1O[C@H]1c4[nH]c5ccccc5c4C[C@@]4(O)[C@@H](C2)N(CC2CC2)CC[C@]314 [NALTRINDOLE],Ki,[1],4.4 nM
same,Ki,[2],7.2 nM
